Experimental data: patent US8486697B2, “Inducing cell death by inhibiting adaptive heat shock response” (Incuron, LLC, priority 2008, dated 2013)

Test system: HeLa cells

CCN(CC)CCCC(C)Nc1c2ccc(Cl)cc2nc2ccc(OC)cc12 (centres unmarked) [QC, quinacrine]
cytotoxicity in combination with DMAG17 (FIG. 5) (6 h, DMAG17 1 μM with quinacrine 10 or 20 μM): synergistic cytotoxicity | cytotoxicity in combination with heat shock (FIG. 6) (heat shock 43° C., 30 min with QC): Synergistic cytotoxicity
